Laboratory results published in patent publication US20220002435A1 (IMMUNOME, published 2022).

How the values were obtained:
[1] = biological target: T1, human EPN1 expressed by human cell lines (human, UniProt Q9Y6I3 1-576); test: flow cytometry, SCC15 cells (human tumor line)
T1 construct: Endogenous EPN1 of human tumour and normal cell lines, stained on live cells or on fixed and permeabilised cells, or immunoprecipitated; The cell lines were not engineered to express it; also called surface EPN1; huEPN1
T1 sequence: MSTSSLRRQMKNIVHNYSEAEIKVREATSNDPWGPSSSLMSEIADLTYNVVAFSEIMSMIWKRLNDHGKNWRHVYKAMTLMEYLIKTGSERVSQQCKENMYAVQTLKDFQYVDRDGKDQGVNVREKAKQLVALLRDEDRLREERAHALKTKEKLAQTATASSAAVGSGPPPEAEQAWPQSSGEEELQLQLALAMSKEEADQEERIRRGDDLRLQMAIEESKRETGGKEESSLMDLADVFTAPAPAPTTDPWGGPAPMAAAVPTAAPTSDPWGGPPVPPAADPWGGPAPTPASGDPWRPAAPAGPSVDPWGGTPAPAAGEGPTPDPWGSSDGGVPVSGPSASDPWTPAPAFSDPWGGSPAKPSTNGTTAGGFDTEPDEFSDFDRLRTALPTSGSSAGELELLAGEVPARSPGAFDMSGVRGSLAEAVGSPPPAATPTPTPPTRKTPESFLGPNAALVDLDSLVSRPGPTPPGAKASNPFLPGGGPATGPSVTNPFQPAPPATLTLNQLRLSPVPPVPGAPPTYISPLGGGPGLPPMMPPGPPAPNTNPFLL

[2] = biological target: T2, recombinant EPN1 (Origene, cat #TP307099) (human, UniProt Q9Y6I3 1-576); test: SPR, IMM20059 captured at about 50 RU on C1/Protein A, 25° C.
T2 construct: Bought protein; also called Epsin-1; Epsin 1
T2 sequence: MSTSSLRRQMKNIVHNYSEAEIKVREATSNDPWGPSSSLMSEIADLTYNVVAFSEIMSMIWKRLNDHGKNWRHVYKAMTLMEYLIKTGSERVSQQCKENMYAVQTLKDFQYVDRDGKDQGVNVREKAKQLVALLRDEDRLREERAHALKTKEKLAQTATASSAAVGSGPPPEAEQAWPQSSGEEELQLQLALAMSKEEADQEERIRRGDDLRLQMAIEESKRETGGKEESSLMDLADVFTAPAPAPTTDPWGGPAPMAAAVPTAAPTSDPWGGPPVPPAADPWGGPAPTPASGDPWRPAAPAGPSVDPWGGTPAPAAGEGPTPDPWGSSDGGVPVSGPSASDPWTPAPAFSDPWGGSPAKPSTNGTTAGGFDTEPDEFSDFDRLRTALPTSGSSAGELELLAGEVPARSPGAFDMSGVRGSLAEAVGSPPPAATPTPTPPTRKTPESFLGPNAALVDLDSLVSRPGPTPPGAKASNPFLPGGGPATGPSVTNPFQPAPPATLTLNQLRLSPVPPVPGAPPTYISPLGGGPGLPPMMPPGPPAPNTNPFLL
Protocol: Binding of EPN1 to IMM20059 was evaluated when antibody was captured, in standard running buffer, onto the surface of a C1/Protein A sensor chip at a density of approximately 50 RU. The combination of the carboxymethylated, matrix-free surface of the C1 chip and the low density of IMM20059 is predicted to limit avid binding.

[3] = biological target: T2, recombinant EPN1 (Origene, cat …); test: SPR, IMM20059 captured at 450 RU on CM5/Protein A, EPN1 in solution, 1:1 model, 25° C., 1st test; 1st test
Protocol: (§1) The strength of the interaction with recombinant EPN1 was further defined by surface plasmon resonance on a BIAcore2000 at 25° C. in standard running buffer (10 mM HEPES, 150 mM NaCl, 0.005% Tween-20, 0.2 mg/mL BSA, pH 7.4). Protein A surfaces were regenerated between binding cycles with 150 mM phosphoric acid. IMM20059, or an isotype control, were captured on CM5/Protein A sensor surface to generate binding and control surfaces; IMM20059 was captured at approximately 200 and 450 RU, the isotype control was captured to a density of approximately 600 RU. Binding of recombinant EPN1 to each of the three surfaces was tested, in triplicate, using a three-fold dilution series starting with 33.3 nM as the highest concentration. […] Double-subtracted data obtained from the binding measured against the 450 RU IMM20059 surface was fit to a 1:1 binding model.

[4] = biological target: T1, human EPN1 expressed by human cell lines; test: flow cytometry, RT4 cells (human tumor line)
[5] = biological target: T1, human EPN1 expressed by human cell lines; test: flow cytometry, HEK293 cells (human normal line)
[6] = biological target: T1, human EPN1 expressed by human cell lines; test: flow cytometry, MFE296 cells (human tumor line)
[7] = biological target: T1, human EPN1 expressed by human cell lines; test: flow cytometry, A549 cells (human tumor line)
[8] = biological target: T1, human EPN1 expressed by human cell lines; test: flow cytometry, NTERA cells (human tumor line)
[9] = biological target: T1, human EPN1 expressed by human cell lines; test: flow cytometry on intact Huh7 cells
Text: (§2) Binding of IMM20059 to intact cells was detected with fluorophore-labelled anti-human secondary Abs.
(§3) Full-length IgG1 antibody, containing the PR045-2H11 Ab VH and VL domains, was expressed recombinantly by transient transfection into mammalian cell lines, such as Chinese Hampster Ovary (CHO) and human embryonic kidney (HEK), or derivatives of those cell lines, using standard conditions. The recombinant antibody, referred to as IMM20059, was purified from conditioned media by affinity chromatography, buffer exchanged into PBS and analyzed for activity by flow cytometry. […] IMM20059 binds, to varying degrees, to the surfaces of cells included in a panel of human cancer cells, immortalized normal human cell lines, and mouse tumor lines (Table 1).

[10] = biological target: T1, human EPN1 expressed by human cell lines; test: flow cytometry, TOV112D cells (human tumor line)
[11] = biological target: T1, human EPN1 expressed by human cell lines; test: flow cytometry on intact cells (lower end; corresponds to A549)
Text: (§4) Binding of IMM20059 to intact cells was detected with fluorophore-labelled anti-human secondary antibodies.
as §3

[12] = biological target: T1, human EPN1 expressed by human cell lines; test: flow cytometry, DU145 cells (human tumor line)
[13] = biological target: T2, recombinant EPN1 (Origene, cat …); test: SPR, IMM20059 captured at 450 RU on CM5/Protein A, EPN1 in solution, 1:1 model, 25° C., 2nd test
Protocol: as §1

[14] = biological target: T1, human EPN1 expressed by human cell lines; test: flow cytometry, CCD841con cells (human normal line)
[15] = biological target: T1, human EPN1 expressed by human cell lines; test: flow cytometry on intact cells (upper end; corresponds to Huh7)
Text: as §2, §3

[16] = biological target: T1, human EPN1 expressed by human cell lines; test: flow cytometry on intact A549 cells
Text: as §4, §3

[17] = biological target: T1, human EPN1 expressed by human cell lines; test: flow cytometry, PC3 cells (human tumor line)

MFI (fold mean fluorescence index above isotype control) [1]: 5 fold
fold decrease in measured intrinsic binding affinity (C1 chip against CM5 chip) [2]: ~10 fold
Kd [3]: 0.96 nM
koff [3]: 0.000705 s⁻¹
kon [3]: 730000 M⁻¹ s⁻¹
MFI (fold mean fluorescence index above isotype control) [4]: 12 fold
MFI (fold mean fluorescence index above isotype control) [5]: 5 fold
MFI (fold mean fluorescence index above isotype control) [6]: 17 fold
MFI (fold mean fluorescence index above isotype control) [7]: 8 fold
MFI (fold mean fluorescence index above isotype control) [8]: 5 fold
EC50 [9]: 1.3 µg/mL
MFI (fold mean fluorescence index above isotype control) [10]: 7 fold
EC50 [11]: 6 to 9 nM
MFI (fold mean fluorescence index above isotype control) [12]: 4 fold
Kd [13]: 0.94 nM
koff [13]: 0.000736 s⁻¹
kon [13]: 787000 M⁻¹ s⁻¹
MFI (fold mean fluorescence index above isotype control) [14]: 8 fold
EC50 [15]: 6 to 9 nM
EC50 [16]: 0.9 µg/mL
MFI (fold mean fluorescence index above isotype control) [17]: 7 fold
B1: IMM20059 (antibody, human IgG1, kappa, V domains shown)
VH: EVQLVESGGGLVQPGGSLRLSCAASGFTFSIHSLNWVRQAPGKGLEWVSYISSNSTTIYYADSVKGRFTISRDNAKDSLYLQMNSLRDEDTAVYYCARDYYCTGGTCFFLPDLWGRGALVTVSS
VL: EIVLTQSPATLSLSPGERATLSCRASQNISNFLAWYQHKPGQAPRLLIYDASIRATGIPARFSGSGSGTDFSLTISSLEPEDFAVYFCQQRYNWLTFGGGTKVEIKR
